## Measured affinities in a library of Ab-95 light chain variants

From the AlphaSeq antibody data of Engelhart et al. 2022 (doi:10.1038/s41597-022-01779-4), copy in the FLAb collection.

All variants were tested on one target, the spike HR2 peptide PDVDLGDISGINAS (SARS-CoV-2).

Parent: Ab-95, a human scFv built as VH, three GGGGS repeats, VL. Only the CDRs of the light chain vary.
VH: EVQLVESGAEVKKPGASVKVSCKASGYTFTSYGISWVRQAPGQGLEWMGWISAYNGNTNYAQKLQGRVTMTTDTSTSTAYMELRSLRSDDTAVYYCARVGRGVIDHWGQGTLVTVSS
VL: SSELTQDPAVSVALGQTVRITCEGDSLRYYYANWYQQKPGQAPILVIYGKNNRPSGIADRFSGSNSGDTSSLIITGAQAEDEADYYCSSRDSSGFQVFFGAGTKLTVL

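In library AAYL52, one, two or three CDR residues were substituted; doubles and triples were drawn at random. The scFvs were displayed on barcoded MATa yeast, the peptide on MATalpha yeast. Binding brings cells together so that they mate, and sequencing counts the barcode pairs among the diploids. Read counts were normalised to the haploid input and turned into Kd by a linear fit to BCL2-family pairs of known affinity, for each replicate. Each pool was mated in three replicate cultures.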

Each variant is given by its three light chain CDRs, as the data file delimits them; those of the parent are EGDSLRYYYAN, GKNNRPS, SSRDSSGFQVF. Every variant below is changed at F95 of the VL (sequential numbering). Each Kd is an estimate from the mating assay, the geometric mean of the replicates in which the pair was seen; lower is stronger. "no signal" marks a missing value. The strain was present, yet no cells mated with the target were sequenced in any replicate, which points to weak or no binding. Three control strains display no target. For library AAYL52, 28% of the pairings with them gave a signal, with a median of 8.2 µM and one signal in twenty below 800 nM, so weak values seen in few replicates may be background. The control count says in how many pairings with the empty strains this scFv gave a signal.

With EGDSLRYYYTN | GKNNMPS | SSRDSSGEQVF the result was 1.0 µM (3 of 3 replicates; controls 2 of 9). Variant GGDSLRYYCAN | GKNNRPS | SSRDSSGEQVF showed 1.2 µM (3 of 3 replicates; controls 4 of 9). With EGDMLRYEYAN | GKNNRPS | SSRDSSGIQVF the result was 72 nM (3 of 3 replicates; controls 2 of 9). Variant EGDSLRYRYAN | GKNYRPS | SSRDSSGTQVF gave 200 nM (3 of 3 replicates; controls 2 of 9). Variant EGDSLAYYYAN | GKNNRPS | SSRDSSGWQVW gave 270 nM (3 of 3 replicates; controls 0 of 9).

For EGDKLRYYHAN | GKNNRPS | SSRDSSGWQVF, the assay gave 6.7 µM (1 of 3 replicates; controls 1 of 9). Variant GGDSLWYYYAN | GKNNRPS | SSRDSSGVQVF gave 1.3 µM (3 of 3 replicates; controls 3 of 9). With EGDSLRYYYAQ | GKNNRPS | SSRDESGQQVF the result was 36 µM (1 of 3 replicates; controls 1 of 9). With EGDSLRYYYAN | GKNNRPS | SSRDSCNWQVF the result was 5.8 µM (2 of 3 replicates; controls 3 of 9). Variant EDWSLRYYYAN | GKNNRPS | SSRDSSGQQVF gave no signal (0 of 3 replicates; controls 1 of 9).

Variant EGCSLRYYYAN | GDNNRPS | SSRDSSGMQVF gave 850 nM (3 of 3 replicates; controls 3 of 9). For EGDSLRYYYAN | GKNNRPS | SFRGSSGGQVF, the assay gave 410 nM (3 of 3 replicates; controls 3 of 9). Variant EGVVLRYYYAN | GKNNRPS | SSRDSSGSQVF showed 2.5 µM (1 of 3 replicates; controls 3 of 9). With EGDSLRYYHAN | GKNNRPS | SSRDSIGSQVF the result was 250 nM (3 of 3 replicates; controls 2 of 9). For EGDSLRNYYAN | GKNNRPS | SSRDSAGQQVF, the assay gave 580 nM (3 of 3 replicates; controls 1 of 9).

For EGDSLRMYYAN | GKNNRPS | SSRDSSGQQPF, the assay gave 6.1 µM (1 of 3 replicates; controls 0 of 9). Variant EGDSLRYYNAN | GKKNRPS | SSRDSSGWQVF showed 280 nM (3 of 3 replicates; controls 1 of 9). Variant EGDSLRYYYAN | GKNNRPS | SSRDSWGMKVF showed 230 nM (3 of 3 replicates; controls 3 of 9). Variant EGDSLRYYYAN | GKNNGPS | ISRDSSGYQVF showed no signal (0 of 3 replicates; controls 1 of 9). Variant EGDSLRYYYAN | GKNNRHS | SSRSSSGQQVF gave 200 nM (3 of 3 replicates; controls 2 of 9).

Variant EGDSLRYYYAN | GKNNRPS | SSRDNSGNQVT showed no signal (0 of 3 replicates; controls 0 of 9). With EGDSLRYYYAN | GKQNRPS | SSRDSSGNQVF the result was 1.5 µM (3 of 3 replicates; controls 6 of 9). Variant EGDSLRYYYAN | GKNNRPS | SSFDSSGHQVT gave 2.3 µM (3 of 3 replicates; controls 1 of 9). For EGDSLRYYYAN | GKNNKPS | SSADSSGEQVF, the assay gave 360 µM (1 of 3 replicates; controls 1 of 9). Variant EGDSLRYYYAN | GKNNRPS | WSRDASGGQVF showed 380 nM (3 of 3 replicates; controls 1 of 9).

Variant EGDSLRYYYAN | GKNNRPS | SSRDCSGWQVF showed 610 nM (3 of 3 replicates; controls 3 of 9). Variant EGDSPRYYYAN | GKNNRPS | TSRDSSGEQVF gave 2.4 µM (3 of 3 replicates; controls 3 of 9). Variant EGESLRYYYAN | GKNNRYS | SSRDSSGPQVF showed 7.9 µM (2 of 3 replicates; controls 2 of 9). For EGDSLRRYYAN | GKNNRPS | SSRDSSGPQVK, the assay gave 27 µM (1 of 3 replicates; controls 1 of 9). Variant EGDSLTYYYAN | GKNNRPS | SSRDSSGYCVF showed 390 nM (3 of 3 replicates; controls 4 of 9).

For SGDSLRYYYAN | GKNNRPS | SSRDSSGCQQF, the assay gave 170 nM (3 of 3 replicates; controls 3 of 9). Variant EGDSLRYIYAF | GKNNRPS | SSRDSSGKQVF showed no signal (0 of 3 replicates; controls 1 of 9). For EGDSLRYYYAN | CKNNRPS | SSRDSSGEQVF, the assay gave no signal (0 of 3 replicates; controls 2 of 9). Variant EGDSLRYNYAN | GKNNRPS | SSPDSSGTQVF showed 4.2 nM (3 of 3 replicates; controls 7 of 9). Variant EGLSLRYYYAN | GKNNRPS | SCRDSSGVQVF showed 490 nM (3 of 3 replicates; controls 1 of 9).

With EGDSLRYYYAN | HKNNRPS | SSTDSSGYQVF the result was 22 µM (2 of 3 replicates; controls 2 of 9). Variant EGHSLRYYYAN | GKNNRPS | SSRDSVGNQVF showed 1.2 µM (3 of 3 replicates; controls 1 of 9). With EGDSLRYYYAN | GKPNRPS | SSRDSSGQQVF the result was 15 µM (2 of 3 replicates; controls 2 of 9). With EGDSLRYYYAN | GKNNRPS | SSRDSQHQQVF the result was 4.0 µM (3 of 3 replicates; controls 4 of 9). Variant EGDSLRYYYAN | GKNNGPS | SSRDLSGLQVF gave 33 µM (2 of 3 replicates; controls 2 of 9).

Variant EGDSLRYYYAN | GKNNRPS | PSFDSSGHQVF showed 660 nM (3 of 3 replicates; controls 4 of 9). For EGDSLTYYYAN | GKNNRPS | SLRDSSGVQVF, the assay gave 780 nM (3 of 3 replicates; controls 2 of 9). Variant EGDSLIYYYRN | GKNNRPS | SSRDSSGDQVF showed 310 µM (2 of 3 replicates; controls 1 of 9).

Top 4 of the variants detected in all replicates, tightest first:

CDR-L1,CDR-L2,CDR-L3,Kd,seen in,control signals
EGDSLRYNYAN,GKNNRPS,SSPDSSGTQVF,4.2 nM,3 of 3,7 of 9
EGDMLRYEYAN,GKNNRPS,SSRDSSGIQVF,72 nM,3 of 3,2 of 9
SGDSLRYYYAN,GKNNRPS,SSRDSSGCQQF,170 nM,3 of 3,3 of 9
EGDSLRYRYAN,GKNYRPS,SSRDSSGTQVF,200 nM,3 of 3,2 of 9